Measurements reported in patent publication US11691963B2, “6-heteroaryloxy benzimidazoles and azabenzimidazoles as JAK2 inhibitors” (Ajax Therapeutics, Inc., priority 2020, dated 2023).

Amino acid sequences for entries named in this document (tags omitted). Residues count along the entry.
UniProt O60674, 849-1124 Y1007F/Y1008F: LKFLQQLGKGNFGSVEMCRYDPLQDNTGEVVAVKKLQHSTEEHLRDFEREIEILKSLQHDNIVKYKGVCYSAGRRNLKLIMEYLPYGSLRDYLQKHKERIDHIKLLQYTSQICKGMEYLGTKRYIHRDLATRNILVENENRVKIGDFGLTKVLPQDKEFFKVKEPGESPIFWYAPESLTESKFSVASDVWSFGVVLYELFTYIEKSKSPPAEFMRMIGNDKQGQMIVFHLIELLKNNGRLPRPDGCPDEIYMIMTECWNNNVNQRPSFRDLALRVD

Biological target: JAK2 (JH1domain-catalytic, Y1007F,Y1008F) kinase (Homo sapiens (Human), UniProt O60674, Y1007F/Y1008F)
Test: biochemical

With `CC(=O)Nc1cc(Oc2cnc3nc(Nc4cc(C(C)(C)C)n(CCF)n4)n(C)c3c2)ccn1` [Example I-130, N-(4-((2-((5-(tert-butyl)-1-(2-fluoroethyl)-1H-pyrazol-3-yl)amino)-1-methyl-1H-imidazo[4,5-b]pyridin-6-yl)oxy)pyridin-2-yl)acetamide] as the compound, how does the Kd read?
Its Kd is less than 10 nM.

Which Kd does the source give for `CC(=O)Nc1cc(Oc2cnc3nc(Nc4cc(C(C)(C)C)n(CC(F)F)n4)n(C)c3c2)ccn1` [Example I-132, N-(4-((2-((5-(tert-butyl)-1-(2,2-difluoroethyl)-1H-pyrazol-3-yl)amino)-1-methyl-1H-imidazo[4,5-b]pyridin-6-yl)oxy)pyridin-2-yl)acetamide] here?
Its Kd is less than 10 nM.

`CC(=O)Nc1cc(Oc2cnc3nc(Nc4cc(C(C)(C)C)n(CCC#N)n4)n(C)c3c2C)ccn1` [Example I-136, N-(4-((2-((5-(tert-butyl)-1-(2-cyanoethyl)-1H-pyrazol-3-yl)amino)-1,7-dimethyl-1H-imidazo[4,5-b]pyridin-6-yl)oxy)pyridin-2-yl)acetamide] was tested. Which Kd did it give?
The Kd was less than 10 nM.

`CC(=O)Nc1cc(Oc2cnc3nc(Nc4cc(C(C)(C)C)n(C[C@H]5CN(C)CCO5)n4)n(C)c3c2)ccn1` [Example I-143] was tested. Which Kd did it give?
Its Kd is 10 to 50 nM.

`CC(=O)Nc1cc(Oc2cnc3nc(Nc4cc(C(C)(C)C)n(C[C@@H]5CN(C)CCO5)n4)n(C)c3c2)ccn1` [Example I-144] was tested. Which Kd did it give?
The Kd was 10 to 50 nM.

With `COCCN1CC[C@H](n2nc(Nc3nc4ncc(Oc5ccnc(NC(=O)C6CC6)c5)cc4n3C)cc2C(C)(C)C)C1` [Example I-173, (S)—N-(4-((2-((5-(tert-butyl)-1-(1-(2-methoxyethyl)pyrrolidin-3-yl)-1H-pyrazol-3-yl)amino)-1-methyl-1H-imidazo[4,5-b]pyridin-6-yl)oxy)pyridin-2-yl)cyclopropanecarboxamide] as the compound, how does the Kd read?
Its Kd is 10 to 50 nM.

With `COCCN1CC[C@@H](n2nc(Nc3nc4ncc(Oc5ccnc(NC(=O)C6CC6)c5)cc4n3C)cc2C(C)(C)C)C1` [Example I-174, (R)—N-(4-((2-((5-(tert-butyl)-1-(1-(2-methoxyethyl)pyrrolidin-3-yl)-1H-pyrazol-3-yl)amino)-1-methyl-1H-imidazo[4,5-b]pyridin-6-yl)oxy)pyridin-2-yl)cyclopropanecarboxamide] as the compound, how does the Kd read?
Its Kd is 50 to 1000 nM.

For `Cn1c(Nc2cc(C(C)(C)C)n([C@@H]3CCN(CCF)C3)n2)nc2ncc(Oc3ccnc(NC(=O)C4CC4)c3)cc21` [Example I-180, (R)—N-(4-((2-((5-(tert-butyl)-1-(1-(2-fluoroethyl)pyrrolidin-3-yl)-1H-pyrazol-3-yl)amino)-1-methyl-1H-imidazo[4,5-b]pyridin-6-yl)oxy)pyridin-2-yl)cyclopropanecarboxamide], which Kd is on record?
Its Kd is 10 to 50 nM.

`COCCN1CC[C@@H](n2nc(Nc3nc4ncc(Oc5ccnc(NC(=O)C6CC6)c5)c(Cl)c4n3C)cc2C(C)(C)C)C1` [Example I-182, (R)—N-(4-((2-((5-(tert-butyl)-1-(1-(2-methoxyethyl)pyrrolidin-3-yl)-1H-pyrazol-3-yl)amino)-7-chloro-1-methyl-1H-imidazo[4,5-b]pyridin-6-yl)oxy)pyridin-2-yl)cyclopropanecarboxamide] was tested. Which Kd did it give?
Its Kd is less than 10 nM.

With `COc1c(Oc2ccnc(NC(C)=O)c2)cnc2nc(Nc3cc(C(C)(C)C)n(CC(F)F)n3)n(C)c12` [Example I-188, N-(4-((2-((5-(tert-butyl)-1-(2,2-difluoroethyl)-1H-pyrazol-3-yl)amino)-7-methoxy-1-methyl-1H-imidazo[4,5-b]pyridin-6-yl)oxy)pyridin-2-yl)acetamide] as the compound, how does the Kd read?
The Kd was less than 10 nM.

`COc1c(Oc2ccnc(NC(=O)C3CC3)c2)cnc2nc(Nc3cc(C4CC4)cn(C)c3=O)n(C)c12` [Example I-191, N-(4-((2-((5-cyclopropyl-1-methyl-2-oxo-1,2-dihydropyridin-3-yl)amino)-7-methoxy-1-methyl-1H-imidazo[4,5-b]pyridin-6-yl)oxy)pyridin-2-yl)cyclopropanecarboxamide] was tested. Which Kd did it give?
Its Kd is less than 10 nM.

How did the Kd turn out when `CC(=O)Nc1cc(Oc2cnc3nc(Nc4ccc(CN5CCOCC5)c(C(F)(F)F)c4)n(C)c3c2Cl)ccn1` [Example I-205, N-(4-((7-chloro-1-methyl-2-((4-(morpholinomethyl)-3-(trifluoromethyl)phenyl)amino)-1H-imidazo[4,5-b]pyridin-6-yl)oxy)pyridin-2-yl)acetamide] was run?
The Kd was 10 to 50 nM.

`CC(=O)Nc1cc(Oc2cnc3nc(Nc4cc(C5CC5)cn(C)c4=O)n(C)c3c2C#N)ccn1` [Example I-207, N-(4-((7-cyano-2-((5-cyclopropyl-1-methyl-2-oxo-1,2-dihydropyridin-3-yl)amino)-1-methyl-1H-imidazo[4,5-b]pyridin-6-yl)oxy)pyridin-2-yl)acetamide] was tested. Which Kd did it give?
Its Kd is 10 to 50 nM.

For `CC(=O)Nc1cc(Oc2cnc3nc(Nc4cc5n(n4)CCCC5(C)C)n(C)c3c2C#N)ccn1` [Example I-209, N-(4-((7-chloro-2-((4,4-dimethyl-4,5,6,7-tetrahydropyrazolo[1,5-c]pyridin-2-yl)amino)-1-methyl-1H-imidazo[4,5-b]pyridin-6-yl)oxy)pyridin-2-yl)acetamide], which Kd is on record?
The Kd was less than 10 nM.

Which Kd does the source give for `CC(=O)Nc1cc(Oc2cnc3nc(Nc4cc(C(F)(F)F)cn(C)c4=O)n(C)c3c2C#N)ccn1` [Example I-211] here?
The Kd was less than 10 nM.
